For this experiment, the target named is αIIb (INTEGRIN, ALPHA 2B; PLATELET GLYCOPROTEIN IIB OF IIB/IIIA COMPLEX, ANTIGEN CD41) (human) (UniProt P08514). Briefly: αIIb complexes captured, mass spectrometry; No. Expts 1.

“FAM175B (UNKNOWN PROTEIN) (from UniProt Q15018 1-415)” returned a #Peptides of 7 peptides.

Substance “GOLGI ASSOCIATED PDZ AND COILED-COIL MOTIF CONTAINING (from UniProt Q9HD26 2-462)” displayed a #Peptides of 10 peptides.

“RIBOSOMAL PROTEIN, LARGE, P0 (from UniProt P05388 1-317)” yielded a #Peptides of 3 peptides.

As for “TU …ON ELONGATION FACTOR, MITOCHONDRIAL (from UniProt P49411 47-455)”, the #Peptides came to 10 peptides.

(Values after patent US20100048677A1 (NEW YORK BLOOD CENTER, published 2010).)
